From ChEMBL document CHEMBL1145995, “Tricyclic benzimidazoles as potent poly(ADP-ribose) polymerase-1 inhibitors” (J Med Chem, 2003)

Legend:
A549 [1] = experiment: Effect on NAD+ depletion (% remaining versus vehicle control) 25 uM compound concentration in A549 cells; details: Homo sapiens
A549 [2] = experiment: Percent ADP-ribose polymer formation at 25 uM compound concentration in A549 cells; details: Homo sapiens

`CN(N=O)C(=N)N[N+](=O)[O-]` was tested. Which Remaining (A549 [1]) did it give?
Its Remaining is 30%.

What about the Formation (A549 [2]) of the same compound?
The Formation was 100%.
